## Apparent affinities of Ab-14 variants for a coronavirus HR2 peptide

Source: Engelhart et al. 2022 (doi:10.1038/s41597-022-01779-4), MIT Lincoln Laboratory and A-Alpha Bio; data file from the FLAb repository.

Target peptide (SARS-CoV-2 spike, HR2 region): PDVDLGDISGINAS

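Phage display of a naive human antibody library on the peptide gave the parent. AAYL49 was designed without a model: most single CDR substitutions and a random sample of double and triple ones. AlphaSeq pools MATa yeast showing the antibodies with MATalpha yeast showing the peptide. The frequency of each diploid, read from paired DNA barcodes, reflects how well the two displayed proteins bind. The ratio of observed to expected reads was calibrated, replicate by replicate, on BCL2-family standards whose Kd was known from biolayer interferometry. The assay was run in three technical replicates.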

Parent: Ab-14, a human scFv built as VH, a 15-residue (Gly4Ser)3 linker, VL. Only the CDRs of the heavy chain vary.
VH: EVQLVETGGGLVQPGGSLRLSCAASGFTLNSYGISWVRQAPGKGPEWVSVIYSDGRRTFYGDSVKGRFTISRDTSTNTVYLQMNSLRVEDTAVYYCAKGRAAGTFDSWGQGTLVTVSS
VL: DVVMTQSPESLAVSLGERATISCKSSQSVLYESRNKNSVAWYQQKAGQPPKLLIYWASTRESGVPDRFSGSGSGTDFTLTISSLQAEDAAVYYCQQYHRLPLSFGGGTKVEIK

Substitutions are numbered in sequence along the VH above, starting at 1 (not Kabat). Every variant below is changed at S31 of the VH (sequential numbering). The read-out is the apparent dissociation constant on a log10 scale (nM): the lower, the stronger. The mean shown is taken over the replicates in which the pair was detected. An entry "no signal" has no value in the source: the pair was not observed among the diploids in any replicate. This suggests poor binding but is not conclusive. Entries are sorted by rising average, undetected variants last. Empty control strains, which show no peptide, gave a signal in 15% of pairings with library AAYL49; the median was 4.06 and 95% of these signals were weaker than 2.83. No background was subtracted. Parent in this assay: reference entry 0.65, copy in this library 4.11 (one replicate of three).

Variant T28P+S31E+R100T showed 0.21 (3 of 3 replicates). With G26K+T28C+S31K the result was 1.69 (3 of 3 replicates). With T28K+S31I+R56E the result was 1.99 (3 of 3 replicates). For S31C+R56E+G61R, the assay gave 2.01 (3 of 3 replicates). With N30T+S31D+S35G the result was 2.17 (1 of 3 replicates). With S31R+T58V+K65E the result was 2.80 (3 of 3 replicates). Variant S31Y+D62M+S107F showed 3.02 (3 of 3 replicates).

For S31G, the assay gave 3.02 (3 of 3 replicates). Variant S31Y+R57S+A102F showed 3.03 (1 of 3 replicates). Variant S31V+R56E+A102H gave 3.23 (3 of 3 replicates). Variant S31D+T58H+V64R showed 3.56 (1 of 3 replicates). Variant S31D+S35V+T104E gave 3.66 (1 of 3 replicates). With S31W+G33F+F105K the result was 3.69 (1 of 3 replicates). Variant S31P+Y32W+I34H showed 3.93 (1 of 3 replicates).

For S31A+S35R+G99R, the assay gave 3.98 (1 of 3 replicates). With S31P+D62C+R100Y the result was 4.04 (1 of 3 replicates). Variant L29D+S31L+G61C gave 4.07 (2 of 3 replicates). Variant L29C+S31P+K65V showed 4.12 (3 of 3 replicates). Variant S31T+S53H+T104P showed 4.17 (2 of 3 replicates). Variant F27L+S31H+S53K gave 4.19 (1 of 3 replicates). Variant L29D+S31G+I34G gave 4.21 (2 of 3 replicates).

Variant S31N+D54Q gave 5.64 (2 of 3 replicates). For S31R+G33W+R57C, the assay gave 5.86 (1 of 3 replicates). Variant S31Y+S63M+D106W gave no signal (0 of 3 replicates). Variant S31D+G55N+V64E gave no signal (0 of 3 replicates). Variant S31C+D106N showed no signal (0 of 3 replicates). For S31R+I34N+A102H, the assay gave no signal (0 of 3 replicates). With S31K+F59P+D106A the result was no signal (0 of 3 replicates).

For S31V+S35Q+T58S, the assay gave no signal (0 of 3 replicates). Variant S31M+G61Y+G99S showed no signal (0 of 3 replicates). Variant S31R+I51Y+R57A gave no signal (0 of 3 replicates). Variant S31K+G55I+S63R gave no signal (0 of 3 replicates). For S31E+S53E+Y60M, the assay gave no signal (0 of 3 replicates). Variant S31Y+I34S+S63E showed no signal (0 of 3 replicates). Variant S31R+I34A+S107W showed no signal (0 of 3 replicates).

For G26K+S31E+G99S, the assay gave no signal (0 of 3 replicates). With S31F+G55C+A101K the result was no signal (0 of 3 replicates). For S31P+G33E+T104R, the assay gave no signal (0 of 3 replicates). Variant S31F+S35F+R100Q gave no signal (0 of 3 replicates). Variant S31W+S35Q+T58Y showed no signal (0 of 3 replicates). Variant S31M+I34N+T58E gave no signal (0 of 3 replicates). With T28W+S31M+K65Y the result was no signal (0 of 3 replicates).

For S31P+V50I+T58D, the assay gave no signal (0 of 3 replicates). For S31V+G55I+T58D, the assay gave no signal (0 of 3 replicates). For S31M+Y32G+V50R, the assay gave no signal (0 of 3 replicates). Variant S31H+S53D+G55Q gave no signal (0 of 3 replicates). With S31P+D62W+T104Q the result was no signal (0 of 3 replicates).

The closing 3 entries, repeated:

changes	log10 Kd (nM), mean	detected
S31M+Y32G+V50R	no signal	0 of 3
S31H+S53D+G55Q	no signal	0 of 3
S31P+D62W+T104Q	no signal	0 of 3